According to PubChem BioAssay AID686940 (The Scripps Research Institute Molecular Screening Center, 2013):
The entries are a selection whose mix differs from that of the whole data set. Active and inactive are the calls of the source.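 Rule for the calls: active = inhibition above a per-plate cutoff, mean inhibition of test wells between control levels plus 3 SD (cut at about 38% in these data); inactive = the rest.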

By UniProt entry, the sequences of proteins in these tests, tags left out.
UniProt P24468, whole entry: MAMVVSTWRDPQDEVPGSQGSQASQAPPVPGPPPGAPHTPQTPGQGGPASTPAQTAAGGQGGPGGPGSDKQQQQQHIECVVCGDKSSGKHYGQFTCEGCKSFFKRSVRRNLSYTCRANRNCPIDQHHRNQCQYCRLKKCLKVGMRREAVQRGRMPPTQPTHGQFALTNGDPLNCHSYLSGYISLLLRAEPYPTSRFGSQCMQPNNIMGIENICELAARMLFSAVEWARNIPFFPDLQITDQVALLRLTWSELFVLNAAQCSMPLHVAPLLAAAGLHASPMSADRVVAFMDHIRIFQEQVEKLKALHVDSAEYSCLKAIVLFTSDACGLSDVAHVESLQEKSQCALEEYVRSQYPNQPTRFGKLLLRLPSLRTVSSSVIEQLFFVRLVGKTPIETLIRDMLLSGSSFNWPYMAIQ

biological target: COUP transcription factor 2 (Homo sapiens) (UniProt P24468); experiment: COUP-TFII reporter suppression in human cells – cell-based, luciferase reporter, HEK293T, luminescence, primary screen (AID 686940); conditions: HEK293T NGFI-A luciferase reporter, at 8.6 µM, stronger effect = higher value;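 note: cells cotransfected with COUP-TFII expression vector driving the NGFI-A reporter; 0% = median of COUP-TF2 test wells and 100% = reporter-only cells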

SMILES | inhibition
CCC(=O)N(c1ccccc1)C1(COC)CCN(CCn2nnn(CC)c2=O)CC1 | inactive: 1.91%
CCC(=O)N(c1ccccc1)C1(COC)CCN(CCc2cccs2)CC1 | inactive: -15.9%
